Measurements: patent EP4629995B1, “COMBINATION THERAPY WITH AN ANALOG OF BLEBBISTATIN FOR THE TREATMENT OF CANCER” (dated 2026)
Like-named read-outs stand apart in the source and are kept apart here.

The chains behind the UniProt entries cited, without tags or fusion partners.
UniProt P08183, whole entry: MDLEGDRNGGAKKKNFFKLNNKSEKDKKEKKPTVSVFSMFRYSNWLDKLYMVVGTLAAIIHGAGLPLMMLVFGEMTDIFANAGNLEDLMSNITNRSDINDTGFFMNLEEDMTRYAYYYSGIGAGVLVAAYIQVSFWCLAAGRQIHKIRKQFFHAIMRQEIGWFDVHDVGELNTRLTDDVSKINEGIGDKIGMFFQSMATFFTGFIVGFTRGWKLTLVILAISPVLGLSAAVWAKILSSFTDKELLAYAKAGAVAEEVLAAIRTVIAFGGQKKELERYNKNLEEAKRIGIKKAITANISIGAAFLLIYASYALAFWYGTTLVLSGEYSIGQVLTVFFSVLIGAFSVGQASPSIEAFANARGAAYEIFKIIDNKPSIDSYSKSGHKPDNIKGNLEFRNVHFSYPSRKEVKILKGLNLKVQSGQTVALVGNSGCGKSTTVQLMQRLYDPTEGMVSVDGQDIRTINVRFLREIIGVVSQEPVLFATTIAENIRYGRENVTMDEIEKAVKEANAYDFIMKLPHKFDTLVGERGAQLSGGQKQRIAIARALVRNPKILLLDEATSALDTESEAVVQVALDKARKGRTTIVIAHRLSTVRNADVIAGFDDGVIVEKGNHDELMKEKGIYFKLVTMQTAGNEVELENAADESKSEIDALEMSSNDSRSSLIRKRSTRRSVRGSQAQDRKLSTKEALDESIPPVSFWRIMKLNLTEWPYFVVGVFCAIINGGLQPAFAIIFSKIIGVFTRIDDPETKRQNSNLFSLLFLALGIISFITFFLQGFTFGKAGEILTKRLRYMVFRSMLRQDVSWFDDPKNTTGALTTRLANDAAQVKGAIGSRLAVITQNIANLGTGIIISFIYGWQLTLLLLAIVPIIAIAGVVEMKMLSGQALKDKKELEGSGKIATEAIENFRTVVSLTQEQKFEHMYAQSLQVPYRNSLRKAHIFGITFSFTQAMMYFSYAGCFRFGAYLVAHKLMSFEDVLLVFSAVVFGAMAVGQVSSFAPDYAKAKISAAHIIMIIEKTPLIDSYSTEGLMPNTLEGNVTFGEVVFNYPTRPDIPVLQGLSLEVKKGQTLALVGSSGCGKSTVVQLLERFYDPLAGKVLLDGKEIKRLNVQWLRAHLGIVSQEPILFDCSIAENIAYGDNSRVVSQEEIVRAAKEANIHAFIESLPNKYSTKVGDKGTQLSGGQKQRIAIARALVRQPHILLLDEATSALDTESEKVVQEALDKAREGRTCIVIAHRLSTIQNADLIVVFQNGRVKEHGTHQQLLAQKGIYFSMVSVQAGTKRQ

Experiments:
[1] = In vivo brain/plasma ratio; conditions: mice, 10mg/kg
[2] = doses as low as 0.5 mg/kg (IV); cited from earlier work
[3] = system: cardiac myosin II (CMII); conditions: cited from earlier work
[4] = Tolerability in vivo; conditions: mouse
[5] = system: Trp53-deleted genetically engineered model (GEMM) of GBM; experiment: Kaplan Meier survival in Trp53-deleted GEMM of GBM
[6] = system: NMIIA and IIB; conditions: cited from earlier work
[7] = system: MIA PaCa-2; experiment: Cell viability (Cell Titer-Glo) and Combination Index; conditions: MIA PaCa-2, 5 days
[8] = system: MDA-MB-468; experiment: as above; conditions: MDA-MB-468, 5 days
[9] = system: PANC-1; experiment: as above; conditions: PANC-1, 5 days
[10] = system: Trp53-deleted (Trp53(-/-)) murine GBM cells; experiment: Cell viability (CellTiter-Glo) dose response with kinase inhibitors and MuSyC synergy
[11] = In vitro DMPK: cell permeability and protein binding
[12] = system: human patient-derived xenograft (PDX) model; experiment: Survival in human PDX model of GBM; conditions: Compound 1 5 mg/kg SC with radiation 2 Gy/dose x 5 daily doses, human PDX (FIG. 6A)
[13] = system: primary human GBM lines; experiment: Dose response, cell viability of primary human GBM lines; conditions: 72 h, all tested cell lines (murine and human)
[14] = target: P-glycoprotein (Pgp) (Homo sapiens, UniProt P08183); experiment: In vitro DMPK: P-glycoprotein substrate
[15] = system: skeletal (SkMII) and smooth (SmMII) muscle myosin; experiment: Skeletal and smooth muscle myosin inhibition
[16] = system: healthy cells in culture; experiment: Toxicity to healthy cells in culture; conditions: non-toxic up to
[17] = system: T47D; experiment: Cell viability and Combination Index
[18] = system: MCF-7; experiment: Cell viability and Combination Index
[19] = system: Murine proneural and mesenchymal GBM cell lines; experiment: Dose response, cell viability of murine GBM lines; conditions: 72 h
[20] = read-out: Compound 1 (µM) at Fa=0.5 in combination, in combination with Everolimus
[21] = read-out: EC50 of compound 1, alone
[22] = read-out: drug (µM) at Fa=0.5 in combination, in combination with Compound 1

In the case of `Cc1ccc2c(c1)C(=O)C1(O)CCN(c3ccccc3)C1=N2` (stereo not drawn), the in vivo brain/plasma ratios [1] is listed as 0.9, the tolerability [2] is listed as “poorly tolerated” and the “inhibition of cardiac myosin II (CMII)” value [3] is listed as “potent inhibition”.
In the case of `Cc1ccc2c(c1)C(=O)[C@]1(O)CCN(c3ccc4nc(C)ccc4c3)C1=N2`, the tolerability [4] is reported as “well-tolerated”, the mouse survival ([5]; Compound 1 5 mg/kg SC with radiation 2 Gy/dose x 5 daily doses, p53-deleted GEMM (FIG. 6B)) is reported as “prolonged mouse survival to a degree greater than the sum of each treatment” and the “increase in median survival over vehicle” value ([5]; single agent (Compound 1 10 mg/kg IP, sunitinib 40 mg/kg oral gavage), from day 5 post-retroviral injection) is reported as 32%. The “potency against both NMIIA and IIB” value [6] was “equal potency”, the “selectivity profile for NMII over CMII” value [6] was “strong selectivity profile” and the EC50 [7, 20] was 5 µM. For the same compound, the EC50 ([7]; read-out: Compound 1 (µM) at Fa=0.5 in combination, in combination with Olaparib) was 0.94 µM, the EC50 [7, 21] was 6 µM and the EC50 [8, 20] was 5 µM. It also gave an EC50 [8, 21] of 10.2 µM, an EC50 [9, 20] of 16.7 µM and an EC50 [9, 21] of 25.1 µM. For the same compound, the “shift of the EC50 for saracatinib to the left” value ([10]; 5 µM Compound 1 with a range of saracatinib concentrations) was greater than 1000 fold, the “shift of the EC50 for sunitinib to the left” value ([10]; 5 µM Compound 1 with a range of sunitinib concentrations) was ~ 20 fold and the protein binding [11] was “protein bound”. The mouse survival [12] was “prolonged mouse survival to a degree greater than the sum of each treatment”, the EC50 [13] was “low micromolar range” and the “P-glycoprotein (Pgp) substrate” value [14] was “not a P-glycoprotein (Pgp) substrate”. For the same compound, the “skeletal (SkMII) and smooth (SmMII) muscle myosin inhibition” value [15] was “some skeletal (SkMII) and smooth (SmMII) muscle myosin inhibition”, the in vivo brain/plasma ratios [1] was 2.3 and the “concentration non-toxic to healthy cells in culture” value [16] was greater than 30 µM. It also gave an EC50 ([17]; read-out: Compound 1 (µM) at Fa=0.5 in combination, 2 days, in combination with Everolimus) of 5 µM, an EC50 ([17]; read-out: Compound 1 (µM) at Fa=0.5 in combination, 3 days, in combination with Olaparib) of 5 µM and an EC50 ([17]; read-out: Compound 1 (µM) at Fa=0.5 in combination, 5 days, in combination with Tamoxifen) of 5 µM. For the same compound, the EC50 ([17]; read-out: EC50 of compound 1, 2 days, alone) was 7.5 µM, the EC50 ([17]; read-out: EC50 of compound 1, 3 days, alone) was 7.5 µM and the EC50 ([17]; read-out: EC50 of compound 1, 5 days, alone) was 6.5 µM. For the same compound, the EC50 ([18]; read-out: Compound 1 (µM) at Fa=0.5 in combination, MCF-7, 2 days, in combination with Everolimus) was 5 µM, the EC50 ([18]; read-out: Compound 1 (µM) at Fa=0.5 in combination, MCF-7, 3 days, in combination with Olaparib) was 5 µM and the EC50 ([18]; read-out: Compound 1 (µM) at Fa=0.5 in combination, MCF-7, 5 days, in combination with Tamoxifen) was 5 µM. For the same compound, the EC50 ([18]; read-out: EC50 of compound 1, MCF-7, 2 days, alone) was 9.4 µM, the EC50 ([18]; read-out: EC50 of compound 1, MCF-7, 3 days, alone) was 9.4 µM and the EC50 ([18]; read-out: EC50 of compound 1, MCF-7, 5 days, alone) was 15.3 µM. It also gave an EC50 [19] of 4 to 6 µM.
`CO[C@H]1C[C@@H]2CC[C@@H](C)[C@@](O)(O2)C(=O)C(=O)N2CCCC[C@H]2C(=O)O[C@H]([C@H](C)C[C@@H]2CC[C@@H](OCCO)[C@H](OC)C2)CC(=O)[C@H](C)/C=C(\C)[C@@H](O)[C@@H](OC)C(=O)[C@H](C)C[C@H](C)/C=C/C=C/C=C/1C` showed an EC50 ([7]; read-out: EC50 of drug, alone) of 6.4 µM, an EC50 [7, 22] of 0.02 µM and an EC50 ([8]; read-out: EC50 of drug, alone) of 10 µM. It also gave an EC50 [8, 22] of 0.05 µM, an EC50 ([9]; read-out: EC50 of drug, alone) of 103 µM and an EC50 [9, 22] of 10.2 µM. The EC50 ([17]; read-out: EC50 of drug, 2 days, alone) was 15.5 µM, the EC50 ([17]; read-out: drug (µM) at Fa=0.5 in combination, 2 days, in combination with Compound 1) was 0.06 µM and the EC50 ([18]; read-out: EC50 of drug, MCF-7, 2 days, alone) was 0.6 µM. It also gave an EC50 ([18]; read-out: drug (µM) at Fa=0.5 in combination, MCF-7, 2 days, in combination with Compound 1) of 0.01 µM.
In the case of `O=C(c1cc(Cc2n[nH]c(=O)c3ccccc23)ccc1F)N1CCN(C(=O)C2CC2)CC1`, the EC50 ([7]; read-out: EC50 of drug, alone) is reported as 7 µM, the EC50 [7, 22] is reported as 4.41 µM and the EC50 ([17]; read-out: EC50 of drug, 3 days, alone) is reported as 14.2 µM. It also gave an EC50 ([18]; read-out: EC50 of drug, MCF-7, 3 days, alone) of 197 µM.
